ChEMBL document CHEMBL2321806, “Optimization of peptide hydroxamate inhibitors of insulin-degrading enzyme reveals marked substrate-selectivity” (J Med Chem, 2013)

The chains behind the UniProt entries cited, without tags or fusion partners.
UniProt P14735, whole entry: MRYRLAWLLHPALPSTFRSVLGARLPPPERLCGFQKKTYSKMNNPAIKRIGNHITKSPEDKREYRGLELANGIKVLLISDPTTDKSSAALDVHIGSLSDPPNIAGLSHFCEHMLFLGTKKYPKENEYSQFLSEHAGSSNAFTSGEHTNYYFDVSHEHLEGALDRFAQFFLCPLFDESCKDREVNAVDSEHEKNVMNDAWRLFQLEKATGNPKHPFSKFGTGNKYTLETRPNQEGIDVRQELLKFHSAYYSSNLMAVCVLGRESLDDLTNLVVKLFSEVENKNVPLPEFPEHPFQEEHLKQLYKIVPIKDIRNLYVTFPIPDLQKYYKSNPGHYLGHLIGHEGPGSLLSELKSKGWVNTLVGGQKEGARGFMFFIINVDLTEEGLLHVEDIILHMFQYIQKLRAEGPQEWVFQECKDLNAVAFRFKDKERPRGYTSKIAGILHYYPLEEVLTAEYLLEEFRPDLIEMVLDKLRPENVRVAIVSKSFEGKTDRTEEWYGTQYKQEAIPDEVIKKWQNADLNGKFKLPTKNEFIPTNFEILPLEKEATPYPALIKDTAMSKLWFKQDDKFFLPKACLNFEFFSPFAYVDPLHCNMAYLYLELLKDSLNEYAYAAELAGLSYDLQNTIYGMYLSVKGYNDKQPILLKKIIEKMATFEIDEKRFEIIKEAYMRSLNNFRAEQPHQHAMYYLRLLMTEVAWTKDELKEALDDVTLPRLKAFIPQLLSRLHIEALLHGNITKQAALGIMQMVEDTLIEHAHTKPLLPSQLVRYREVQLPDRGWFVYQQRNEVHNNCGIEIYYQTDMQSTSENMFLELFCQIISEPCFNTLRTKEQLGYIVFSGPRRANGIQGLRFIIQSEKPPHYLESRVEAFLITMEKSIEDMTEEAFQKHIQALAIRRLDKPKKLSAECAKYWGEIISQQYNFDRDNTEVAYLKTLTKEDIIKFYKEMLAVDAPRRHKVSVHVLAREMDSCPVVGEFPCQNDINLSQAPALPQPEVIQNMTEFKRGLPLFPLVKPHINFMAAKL

Tests used:
Insulin-degrading enzyme [1] = target: T1, Insulin-degrading enzyme (Homo sapiens, UniProt P14735); experiment: Inhibition of human recombinant IDE-mediated FRET1 degradation; details: read-out: Ki(app)
Insulin-degrading enzyme [2] = target: T1, Insulin-degrading enzyme; experiment: Selectivity ratio of apparent Ki for human recombinant IDE-mediated insulin degradation to apparent Ki for human recombinant IDE-mediated FRET1 degradation

SMILES	Ki (Insulin-degrading enzyme [1]) [µM]	Ratio Ki(app) (Insulin-degrading enzyme [2])
NC(=O)[C@H](Cc1c[nH]c2ccccc12)NC(=O)[C@H](CCCN=C(N)N)NC(=O)[C@H](Cc1ccc2ccccc2c1)[C@@H](O)C(=O)NO	0.498	
N=C(N)NCCC[C@H](NC(=O)[C@H](Cc1ccc2ccccc2c1)[C@H](O)C(=O)NO)C(=O)N[C@@H](Cc1c[nH]c2ccccc12)C(N)=O	18	
N=C(N)NCCC[C@H](NC(=O)[C@@H](CC(=O)NO)Cc1ccc2ccccc2c1)C(=O)N[C@@H](Cc1c[nH]c2ccccc12)C(=O)N[C@@H](CCC(=O)O)C(N)=O		10
